Measurements from patent US8614223B2, “Pyrimidine hydroxy amide compounds as protein deacetylase inhibitors and methods of use thereof” (Acetylon Pharmaceuticals, Inc., priority 2010, dated 2013).

Protein sequences, listed by entry. Tags and fused reporters are not part of them. Lines headed by an entry give the natural chain unless they say otherwise; changes in a name come on top.
UniProt O15379: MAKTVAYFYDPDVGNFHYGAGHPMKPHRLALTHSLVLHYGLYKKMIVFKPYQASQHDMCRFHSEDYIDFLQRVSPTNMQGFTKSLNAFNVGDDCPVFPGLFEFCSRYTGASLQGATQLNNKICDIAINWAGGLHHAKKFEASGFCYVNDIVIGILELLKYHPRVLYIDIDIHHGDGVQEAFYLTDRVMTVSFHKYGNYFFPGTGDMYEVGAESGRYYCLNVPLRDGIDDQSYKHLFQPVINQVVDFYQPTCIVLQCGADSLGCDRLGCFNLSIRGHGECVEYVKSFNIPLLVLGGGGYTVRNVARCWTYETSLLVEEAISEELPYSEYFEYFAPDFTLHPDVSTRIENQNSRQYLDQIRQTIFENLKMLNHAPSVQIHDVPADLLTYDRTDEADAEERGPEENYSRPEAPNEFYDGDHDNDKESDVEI
UniProt Q92769, whole entry: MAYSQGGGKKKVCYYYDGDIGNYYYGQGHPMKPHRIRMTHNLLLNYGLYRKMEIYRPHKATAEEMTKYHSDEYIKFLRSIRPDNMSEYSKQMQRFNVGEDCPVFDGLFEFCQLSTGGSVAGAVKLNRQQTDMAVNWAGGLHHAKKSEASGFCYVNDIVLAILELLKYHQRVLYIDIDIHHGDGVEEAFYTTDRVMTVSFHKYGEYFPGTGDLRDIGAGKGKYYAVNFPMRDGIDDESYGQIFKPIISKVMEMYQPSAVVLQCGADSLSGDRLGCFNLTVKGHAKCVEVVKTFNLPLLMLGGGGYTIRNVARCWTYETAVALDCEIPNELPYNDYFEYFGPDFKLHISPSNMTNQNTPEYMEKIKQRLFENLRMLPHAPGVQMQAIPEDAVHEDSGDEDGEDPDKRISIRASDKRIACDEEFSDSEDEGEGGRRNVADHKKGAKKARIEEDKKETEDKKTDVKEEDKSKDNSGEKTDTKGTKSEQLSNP
UniProt Q13547, whole entry: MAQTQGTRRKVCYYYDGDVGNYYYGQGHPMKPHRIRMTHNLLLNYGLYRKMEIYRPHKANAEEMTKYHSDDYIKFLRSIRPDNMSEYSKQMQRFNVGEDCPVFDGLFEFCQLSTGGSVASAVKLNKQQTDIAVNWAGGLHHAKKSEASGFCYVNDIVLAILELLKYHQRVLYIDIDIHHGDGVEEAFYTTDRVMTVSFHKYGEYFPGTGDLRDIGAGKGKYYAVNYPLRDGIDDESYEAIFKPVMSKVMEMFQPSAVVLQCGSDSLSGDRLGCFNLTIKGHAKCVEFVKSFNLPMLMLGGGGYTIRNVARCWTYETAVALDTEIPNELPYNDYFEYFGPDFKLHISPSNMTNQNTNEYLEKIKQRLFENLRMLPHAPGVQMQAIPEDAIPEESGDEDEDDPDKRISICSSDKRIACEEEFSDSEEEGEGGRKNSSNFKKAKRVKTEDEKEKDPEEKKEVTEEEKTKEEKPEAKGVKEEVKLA

How the values were obtained:
HDAC3 = HDAC3 (Homo sapiens (Human), UniProt O15379); assay: HDAC enzyme assay, HDAC3; settings: ratio HDAC3/HDAC6
HDAC2 = HDAC2 (Homo sapiens (Human), UniProt Q92769); assay: HDAC enzyme assay, HDAC2; settings: ratio HDAC2/HDAC6
HDAC1 = HDAC1 (Homo sapiens (Human), UniProt Q13547); assay: HDAC enzyme assay, HDAC1; settings: ratio HDAC1/HDAC6

Row | Compound | HDAC3 fold over HDAC6 IC50 (selectivity for HDAC6) (HDAC3) | HDAC2 fold over HDAC6 IC50 (selectivity for HDAC6) (HDAC2) | HDAC1 fold over HDAC6 IC50 (selectivity for HDAC6) (HDAC1)
1 | CC(C)(Nc1ncc(C(=O)NO)cn1)c1ccccc1F [Compound 71] | (511.4x) | (370x) | (202.9x)
2 | O=C(NO)c1cnc(NCc2ccc3c(c2)OCO3)nc1 [Compound 46] | (31.2x) | (28.4x) | (21.4x)
3 | COc1cc(F)ccc1CNc1ncc(C(=O)NO)cn1 [Compound 49] | (138.1x) | (154x) | (99.5x)
